Assay results from patent US20160264649A1 (published 2016).

Biological target: aMLV envelope
Experiment: cell-based or functional assay

Binder	neutralization IC50
1460_G14 (PGG14) (antibody, V domains shown) VH: QVLLVQSGTEVKKPGSSVKVSCQASGGAFSSYAFSWVRQAPGQGLEWMGMITPVFGETKYAPRFQGRLTLTAEESLSTTYMELRSLTSDDTAFYYCTRDRRVVPMATDNWLDPWGQGTLVTVSS VL: DIQLTQSPSSLSASVGDRVTVTCRASQTIHTYLNWYQQIPGKAPKLLIYGASTLQSGVPSRFSGSGSGTDFTLTINSLQPEDFATYYCQQSYSTPRTFGQGTRLDIKR	> 50 mg/L
1456_P20 (PG20) (antibody, V domains shown) VH: QVRLVQSGPEVKKPGSSVTVSCQASGGTFSSYAFTWVRQAPGQGLEWLGMVTPIFGEAKYSQRFEGRVTITADESTSTTSIELRGLTSEDTAIYYCARDRRAVPIATDNWLDPWGQGTLVTVSS VL: DIQLTQSPSSLSASVGDRVSITCRASQTINNYLNWYQQTPGKAPKLLIYGASNLQNGVPSRFSGSGSGTDFTLTISSLQPEDFATYYCQQSFSTPRTFGQGTRLDIKR	> 50 mg/L
